How the values were obtained:
[1] = system: CD45^high cells in brain compartment; experiment: CD45^high cells in brain compartment of socially isolated (SI) mice, FACS; format: in vivo; conditions: i.p. once a day for 14 days, FLX 10 mg/kg, relative to control group-housed mice (1±0.07), SI saline 0.6±0.1, mean±SEM
Protocol: Mice: Adult (8-12 weeks of age; 20-25 g) males and females, SERT-Cre mice (B6.FVB(Cg)-Tg(Slc6a4-cre)ET33Gsat/Mmucd, (MMRRC, stock #031028-UCD), were used for the chemogenetic experiments. Adult C57Bl/6JOlaHsd mice (Envigo) and BALB/cOlaHsd (Envigo) were used for the characterization of the immune cells in the pineal gland, agonist, and social isolation experiments. Mice were maintained under specific-pathogen-free (SPF) conditions on a 12 h light:12 h dark cycle (lights on at 07:00) with food and water ad libitum. All experiments were performed in accordance with the National Institutes of Health Guidelines for the Care and Use of Laboratory Animals (Garber et al., 2011). All procedures and protocols were approved by the Technion Administrative Panel of Laboratory Animal Care. Throughout the experiments, mice were randomly assigned to experimental groups.
Flow cytometry and CyTOF mass cytometer: Mice were euthanized and transcardially perfused with 20 mL PBS (without Ca^2+/Mg^2+). The brains were separated from the meninges and dissected. […]
For viability staining, cells (10^6) were washed once with PBS, resuspended in Zombie NIR™ dye solution (1:1000, Biolegend, 423106) and incubated in the dark for 15 min at RT. […] Samples were analyzed using a CytoFLEX cell analyzer and FlowJo software. […]

[2] = system: immobility in tail suspension test; experiment: Tail suspension test (TST) in socially isolated (SI) mice; conditions: i.p. once a day for two weeks, relative to control group-housed mice (1±0.1), mean±SEM

In the case of CNCCC(Oc1ccc(C(F)(F)F)cc1)c1ccccc1 (centres unmarked) [FLX], the “Fold increase of CD45^high cells in brain compartment” value [1] is reported as 1±0.06 fold and the “Fold change of immobility in tail suspension test (TST)” value [2] is reported as 0.99±0.2 fold.

Source: patent US20250114351A1, “5-HT2C RECEPTOR MODULATING AGENTS FOR THE TREATMENT OF NEURODEGENERATIVE, MENTAL, COGNITIVE AND AUTOIMMUNE CNS DISORDERS” (priority 2022, published 2025)
